Assay results taken from patent publication US20260250289A1, “BICYCLIC HETEROCYCLES AND THEIR USE AS WRN INHIBITORS” (Novartis AG, priority 2022, published 2026).

System: DLD1-WRN-KO cells
Assay: Proliferation assay DLD1-WRN-KO (CellTiterGlo, off-target effects)
Type: cell-based
Settings: 96 h, read-out: Proliferation Assay DLD1-WRN-KO GI50
Procedure: The WRN-knockdown insensitive colon carcinoma cell line DLD-1 (RRID: CVCL_0248) was obtained from the Korean Cell Line Bank (KCLB), and used to generate a derivative in which the endogenous WRN gene copies were knocked out by CRISPR-mediated editing using standard CRISPR methods. The resulting cell line, DLD1-WRN-KO, was used to assess potential off-target compound effects. […]
Three replicate plates were prepared for each compound treatment condition. In addition, one plate (termed “day 0”) was prepared to quantify the number of viable cells at the time of compound addition. […] 96 hours after compound addition, cellular ATP levels as a surrogate for cell viability was assessed following addition of 50 microliters CellTiterGlo (Promega Cat #G7573) reagent and luminescence quantification on a MPLEX multi-mode plate-reader (TECAN) following a 10 minute incubation at room temperature. The number of viable cells in the “day 0” plate were quantified identically on the day of compound addition.
For data analysis, the assay background signal that was determined in wells containing medium, but no cells, was subtracted from all other data points prior to further calculations. The extent of growth inhibition and potential cell kill was assessed by comparing the ATP levels (measured using CellTiterGlo, Promega) in compound-treated cells with those present at the time of compound addition. […]

## CCc1c(N2CCN(C(=O)c3nccc4cc[nH]c34)CC2)c(=O)n2nc(C3=CCOCC3)nc2n1CC(=O)Nc1ccc(C(F)(F)F)cc1C [Example 41, 2-(6-(4-(1H-pyrrolo[2,3-c]pyridine-7-carbonyl)piperazin-1-yl)-2-(3,6-dihydro-2H-pyran-4-yl)-5-ethyl-7-oxo-[1,2,4]triazolo[1,5-a]pyrimidin-4(7H)-yl)-N-(2-methyl-4-(trifluoromethyl)phenyl)acetamide]
  GI50: 6 µM
